Several values for one entry are separate records, joined by “and”; a condition that tells them apart may be missing. Equal entries are not always repeated. Values belong to the compound of their own block, whether it stands above or below them.
Legend:
[1] = Population pharmacokinetic analysis in rabbits; type: in vivo, rabbit; settings: population median, F = 1
Description: Assuming an instant input of ICRF-193 solely into the central compartment (V1) and complete conversion of the administered dose of GK-667 into ICRF-193, the disposition of ICRF-193 in plasma was best described by a three-compartment open model with first-order elimination from the central compartment. In the joint model for ICRF-193 and ICRF-193met, formation of the metabolite was modeled as a first-order process (Fig. S5), and one volume of distribution for the metabolite (V4) was added to three volumes for ICRF-193 (V1, V2, and V3).
All model parameters of ICRF-193 and ICRF-193met could not be simultaneously estimated by stochastic approximation expectation maximization (SAEM) in one step. Instead, population medians and between-subject standard deviations were first estimated for the volume (V1, V2 and V3) and clearance parameters (CLtot) for the parent molecule using the concentrations of ICRF-193. In the second step, the ICRF-193met concentration data were added, median estimates for the parameters of ICRF-193 from the first step were used as initial estimates, and their standard deviations were fixed. A maximum likelihood estimation was used to calculate the parameters CLmet, CLother, V4, and CLICRF-193met. For the remaining parameters of the parent-metabolite model (Fig. S5), a maximum a posteriori (MAP) estimation was adopted. The residual error in the population kinetic analysis was best described with a proportional model.
(§1) Standard noncompartmental analysis was performed using Kinetica software (version 4.0, Thermo Fisher Scientific Inc., USA). The population parameter estimation for nonlinear mixed effect models was conducted using Monolix version 2019R2 software (Antony, France: Lixoft SAS, 2019, http://lixoft.com/products/monolix/). The stochastic approximation expectation maximization (SAEM) algorithm coupled with Markov Chain Monte Carlo (MCMC) without the use of approximations (linearization) was used for the estimation of the likelihood. For evaluation of the goodness-of-fit, the following plots were assessed: observed versus individual predicted concentrations, weighted residuals versus time and weighted residuals versus predictions. Individual parameter values were obtained as empirical Bayes estimates. A visual predictive check with 1000 simulated data sets was performed.
Figure S5: Schematic representation of the four-compartmental parent-metabolite model […]
Hydrolysis of GK-667 is very fast and the parent compound was essentially completely cleared from plasma within 10 min after injection. ICRF-193 was quantitatively dominating at the first sampling interval (5 min). Therefore, the model assumes instant input and complete absolute […]
bioavailability of ICRF-193 (F=1). V1, V2 and V3 are volumes of central and peripheral […]
compartments for ICRF-193 and, V4 is the distribution volume for ICRF-193met. The clearance […]
characteristics are as follows: CLmet describes formation of ICRF-193met from ICRF-193; CLother […]
summarizes clearances of ICRF-193 via other elimination pathways; Q12 and Q13 are inter- […]
compartmental clearances; CLICRF-193met is the total clearance of the metabolite.
(1 picture or pasted object on this page, not shown here)

[2] = Process stability in untreated plasma; type: in vitro ADME, rabbit; settings: 23 °C, 20 min
Description: Linearity was tested within the concentration range of 0.2 – 100 μM for all compounds in DMEM, the buffer and plasma and 10-100 pmol/106cells in NVCMs (method I). For method II, the concentration ranges 0.01-15 μM and 0.01-1 μM were used for determination of ICRF-193 and ICRF-193met in plasma, respectively. Unweighted and weighted (1/x and 1/x2) linear regression was applied to obtain the best fitting calibration model. […]
(§2) Stability of the analytes was examined at low and high concentrations. Process s tability (n=3) in plasma was tested for 20 min at either laboratory temperature (23 °C) or on ice (4 °C, only for GK-667). Post-preparation stability was examined for 8 to 10 h in an autosampler (8 °C, n=3) for all treated matrices. […]

[3] = ICRF-193 release from GK-667 in rabbit plasma in vitro; type: in vitro ADME; settings: GK-667 100 µM, 37 °C
Description: In the next step, the release of ICRF-193 was studied at two concentrations (10 and 100 μM) in rabbit plasma as the relevant biological environment for the in vivo experiments. In these experiments, both GK-667 and ICRF-193 were incubated in rabbit plasma (37 °C) in a thermomixer (350 rpm).
From all of the above described experiments, samples were taken at predefined intervals, treated and immediately analyzed. All experiments were performed in four replicates, and the results are expressed as the mean ± SD.

[4] = test system: neonatal ventricular cardiomyocytes (NVCMs); experiment: Intracellular concentrations in NVCMs after incubation with GK-667; type: in vitro ADME, rat
Description: All samples were spiked with the internal standards. DMEM or buffer (100 μL) was diluted with an ice-cold methanol/water mixture (20:80, v/v), mixed and analyzed. Plasma (50 μL) was precipitated with ice-cold methanol (1:5, v/v), mixed (20 s) and centrifuged (10 min, 10,000 rpm, 4 °C). NVCM pellets (4.8 × 10^6 cells) were precipitated with ice-cold methanol (250 μL), mixed (20 s), sonicated in a cold ultrasonic bath (75 s), mixed (30 s) and centrifuged (10 min, 10,000 rpm, 4 °C). The supernatants from the plasma and NVCM extractions were filtered (0.22 μm, PVDF) prior to analysis. For assay of the prodrugs, the samples were acidified with formic acid to a final concentration of 0.5%.
GK-667 (100 μM) was incubated (37 °C, 5% CO2, CelCulture Incubator) with NVCMs in the medium (DMEM/F12 supplemented with 1% P/S) for 24 h. Both DMEM and NVCMs were harvested at 3, 6, 12 and 24 h. Immediately after sampling, DMEM was treated and analyzed. Cardiomyocytes were scrapped, washed twice with PBS buffer (4 °C), and centrifuged (700 × g, 10 min, 4 °C). The redundant supernatant was discarded, and the pellet was immediately treated and analyzed. All experiments were performed in triplicate, and the results are expressed as the mean ± SD.

[5] = Approximate solubility in distilled water at room temperature; type: physicochemical
Description: To improve the solubility of ICRF-193 and enable future in vivo examination of its cardioprotective properties against ANT cardiotoxicity, we prepared three prodrugs (GK-667, GK-678 and GK-691, Fig. 1d) utilizing a concept similar to the design of sobuzoxane. The syntheses of the target prodrugs were performed according to a known three-step procedure with some modifications. Target prodrugs GK-667, GK-678 and GK-691 were obtained in 34%, 37% and 17% overall yields, respectively. […] The resulting solutions remained physically stable for at least two hours at room temperature.

[6] = Freeze-thaw and storage stability in plasma at -80 °C; type: in vitro ADME, rabbit; settings: for % of initial concentration, 1st freeze-thaw cycle / % of initial concentration, 2nd freeze-thaw cycle: plasma, -80 °C
Description: ICRF-193 and ICRF-193met in plasma, respectively. Unweighted and weighted (1/x and 1/x2) linear regression was applied to obtain the best fitting calibration model. […]
as §2, with “matrices. Freeze-thaw stability of ICRF-193 and ICRF-193met in” for “matrices.”
plasma was tested at -80 °C and the freezing cycle was repeated twice (n=3). […]

[7] = In vivo pharmacokinetic study of GK-667 in rabbits, noncompartmental analysis; set-up: species or system rabbit
Description: GK-667 was freshly dissolved in saline (5 mg/mL) before each administration. New Zealand White male rabbits (n = 6, ∼3.8 kg) received GK-667 (5 mg/kg) administered as a single slow (2 min) intravenous dose bolus to the ear marginal vein. Blood (∼1 mL) was sampled from veins on the contralateral ear at selected time points after drug administration (5 min to 9 h) into BD Vacutainers (BD Biosciences, Plymouth, UK) containing lithium heparin. Collected blood samples were immediately centrifuged (2 min, 3000 rpm, 4 °C), and plasma samples were harvested directly.
Plasma samples taken 0 to 20 min after GK-667 administration were immediately processed by the addition of formic acid and precipitation with ice-cold methanol. The supernatants were then analyzed for all analytes, including the intact prodrug. This was essential to ensure the appropriate determination of highly labile GK-667 at the first sampling intervals, and the whole procedure was validated for this purpose. […] Thus, all following plasma samples were immediately shock-frozen in liquid nitrogen and stored at -80 °C until analysis.
For drug administration and blood sampling, light anesthesia was induced in rabbits with a mixture of ketamine (25 mg/kg, i.m.) and midazolam (2.5 mg/kg, i.m.); sedation was then maintained with midazolam when needed. The blood withdrawn from the animals was compensated with an appropriate volume of sterile saline. All in vivo experiments and procedures were approved and supervised by the Animal Welfare Committee of the Faculty of Medicine in Hradec Kralove (Charles University), and the experiments were performed in compliance with the ARRIVE guidelines.
as §1

[8] = Post-preparation stability of the extracted analytes in autosampler (8 °C); type: physicochemical
Description: Linearity was tested within the concentration range of 0.2 – 100 μM for all compounds in DMEM, the buffer and plasma and 10-100 pmol/106cells in NVCMs (method I). For method II, the concentration ranges 0.01-15 μM and 0.01-1 μM were used for determination of ICRF-193 and ICRF-193met in plasma, respectively. Unweighted and weighted (1/x and 1/x2) linear regression was applied to obtain the best fitting calibration model.
Accuracy and precision were calculated at 4 levels (LLOQ, low, medium and high concentrations). Five quality control (QC) samples were used for all concentration levels. […]
as §2, with “matrices. Freeze-thaw stability of ICRF-193 and ICRF-193met in” for “matrices.”
plasma was tested at -80 °C and the freezing cycle was repeated twice (n=3). The buffer, DMEM, NVCMs and plasma samples containing GK -667 from in vitro studies and from first intervals of pharmacokinetic study (up to 20 min) w ere treated and analyzed immediately after […]

[9] = rabbits n = 6, GK-667 5 mg/kg i.v., NCA
[10] = rabbits n = 6, GK-667 5 mg/kg i.v., NCA, assuming F = 1

Compound: ICRF-193 [reference compound]
- CLmet ([1]; formation clearance of ICRF-193met from ICRF-193, rabbits): 1.35 mL/min/kg
- CLother ([1]; rabbits, GK-667 5 mg/kg i.v.): 26.7 mL/min/kg
- CLtot ([1]; rabbits, GK-667 5 mg/kg i.v.): 28.3 mL/min/kg
- Q12 ([1]; rabbits, GK-667 5 mg/kg i.v.): 23.3 mL/min/kg
- Q13 ([1]; rabbits, GK-667 5 mg/kg i.v.): 0.583 mL/min/kg
- V1 ([1]; rabbits, GK-667 5 mg/kg i.v.): 0.36 L/kg
- V2 ([1]; rabbits, GK-667 5 mg/kg i.v.): 0.67 L/kg
- V3 ([1]; rabbits, GK-667 5 mg/kg i.v.): 0.98 L/kg
- stability in untreated plasma at laboratory temperature [2]: stable
- peak concentration of ICRF-193 released in plasma [3]: 65 µM
- time of the ICRF-193 peak concentration in plasma [3]: 30 min
- highest intracellular concentration of ICRF-193 ([4]; NVCMs incubated with GK-667 100 µM, 37 °C, first sampling interval (3 h)): approximately 10 pmol/10^6 cells
- peak intracellular ICRF-193 concentration relative to that previously determined for DEX ([4]; NVCMs, GK-667 100 µM, DEX value from ref 20): approximately 50%
- approximate solubility in distilled water [5]: ≤ 5 µg/mL
- degradation in plasma on storage ([6]; -80 °C for 1 month): no significant degradation
- % of initial concentration, 1st freeze-thaw cycle ([6]; initial concentration 0.05 µM): 98.8 ± 5.3%
- % of initial concentration, 2nd freeze-thaw cycle ([6]; initial concentration 0.05 µM): 96.9 ± 8.2%
- % of initial concentration, 1st freeze-thaw cycle ([6]; initial concentration 10.00 µM): 94.3 ± 2.3%
- % of initial concentration, 2nd freeze-thaw cycle ([6]; initial concentration 10.00 µM): 89.6 ± 0.6%
- ICRF-193-to-GK-667 concentration ratio ([7]; rabbit plasma, 5 min after GK-667 5 mg/kg i.v.): 7.2 (range: 1.5–14.8)
- AUClast [7, 9]: 4.4 µM·h
- AUCtot [7, 9]: 4.4 µM·h
- AUMClast [7, 9]: 2.9 h^2∙µM
- AUMCtot [7, 9]: 3.0 h^2∙µM
- MRT [7, 9]: 41.4 min
- Tmax [7, 9]: 5 min
- λz [7, 9]: 0.94 h⁻¹
- CL [7, 10]: 31.7 mL/min/kg
- Vss [7, 10]: 1.3 L/kg
- Vz [7, 10]: 2.2 L/kg
- t1/2 ([7]; rabbits n = 6, GK-667 5 mg/kg i.v., NCA, terminal half-life): 48 min and 46.8 min
- plasma concentration of ICRF-193 ([7]; rabbits, 30 min after GK-667 5 mg/kg i.v.): approximately 2 µM
- plasma concentration of ICRF-193 as part of the corresponding cmax ([7]; rabbits, 4 h post injection of GK-667 5 mg/kg i.v.): less than 1%
- maximal plasma concentration of ICRF-193 over the lowest effective concentration in vitro (0.3 µM) ([7]; rabbits, GK-667 5 mg/kg i.v.): approximately 30 fold
- time ICRF-193 plasma concentration remained in the in vitro effective concentration range ([7]; rabbits, GK-667 5 mg/kg i.v.): approximately 3 h
- percentage of initial concentration in autosampler ([8]; extracted DMEM, 100 µM, 0 h): 98.5%
- percentage of initial concentration in autosampler ([8]; extracted DMEM, 100 µM, 8 h): 101.2%
- percentage of initial concentration in autosampler ([8]; extracted DMEM, 100 µM, 10 h): 101.3%
- percentage of initial concentration in autosampler ([8]; extracted NVCMs, 100 pmol/106 cells, 0 h): 100.0%
- percentage of initial concentration in autosampler ([8]; extracted NVCMs, 100 pmol/106 cells, 8 h): 107.6%
- percentage of initial concentration in autosampler ([8]; extracted NVCMs, 100 pmol/106 cells, 10 h): 108.4%
- percentage of initial concentration in autosampler ([8]; extracted buffer, 100 µM, 0 h): 98.7%
- percentage of initial concentration in autosampler ([8]; extracted buffer, 100 µM, 8 h): 95.4%
- percentage of initial concentration in autosampler ([8]; extracted buffer, 100 µM, 10 h): 98.3%
- percentage of initial concentration in autosampler ([8]; extracted plasma, 100 µM, 0 h): 99.8%
- percentage of initial concentration in autosampler ([8]; extracted plasma, 100 µM, 8 h): 96.4%
- percentage of initial concentration in autosampler ([8]; extracted plasma, 100 µM, 10 h): 93.8%

- percentage of initial concentration in autosampler ([8]; extracted buffer, 100 µM, 10 h): 100.9%
Compound: C[C@H]([C@H](C)N(CC(N)=O)CC(=O)O)N(CC(N)=O)CC(=O)O [ICRF-193met]
